# Ab-14 light chain CDR variants: yeast mating affinities

From the AlphaSeq antibody data of Engelhart et al. 2022 (doi:10.1038/s41597-022-01779-4), copy in the FLAb collection.

All variants were tested on one target, the spike HR2 peptide PDVDLGDISGINAS (SARS-CoV-2).

The variants keep the heavy chain, the linker and the frameworks of Ab-14 (scFv order VH, the linker GGGGSGGGGSGGGGS, VL).
VH: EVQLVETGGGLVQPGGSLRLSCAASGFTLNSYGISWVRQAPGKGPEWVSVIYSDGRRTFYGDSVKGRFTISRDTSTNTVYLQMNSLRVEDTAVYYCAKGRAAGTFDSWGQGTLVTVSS
VL: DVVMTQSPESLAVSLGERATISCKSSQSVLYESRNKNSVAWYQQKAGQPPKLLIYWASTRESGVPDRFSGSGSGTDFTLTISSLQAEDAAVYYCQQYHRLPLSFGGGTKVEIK

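In library AAYL50, one, two or three CDR residues were substituted; doubles and triples were drawn at random. The assay is AlphaSeq: two haploid yeast populations carry antibody and antigen on their surface. After mating in shaken culture at 30 °C for 16 h, diploids were selected and their barcode pairs sequenced. Scores were corrected for input abundance and mapped to Kd with protein pairs of known affinity run in the same pool. There are three technical replicates.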

Variants are written as CDR1, CDR2 and CDR3 of the light chain (limits as in the source). Parent: KSSQSVLYESRNKNSVA, WASTRES, QQYHRLPLS. Scale: log10 of Kd in nM, estimated from mating counts; low values are strong binders. A mean of the replicates is given; it leaves out those without a signal. "n.d." means that the variant was in the library but no mating with the target was seen in that replicate; the authors take this as a sign of poor binding, and no number exists. Parent in this assay: reference entry 0.65, copy in this library 1.68.

CDR-L1,CDR-L2,CDR-L3,log10 Kd (nM) by replicate,"log10 Kd (nM), mean",signal with controls
KSSQSDLYEYRNKNSVL,WASTRES,QQYHRLPLS,3.98 3.82 n.d.,3.90,4 of 9 (4.88)
KQSQSVLYESRNKYSVA,WASTRES,QQYHRLPLS,0.49 0.81 0.45,0.58,0 of 9
KSSQSVLYESCNKNSPA,WASTEES,QQYHRLPLS,n.d. n.d. n.d.,n.d.,0 of 9
KSNQSVLYESRNKNSVA,WSSTRES,QQYHRLPRS,n.d. n.d. n.d.,n.d.,0 of 9
KSSQSVLYNSRNKASVA,WASTRES,QQYHRLPCS,2.15 1.78 1.72,1.88,0 of 9
KSSQSVLYESQNKNSVA,WASTRES,QQYHRLCHS,2.30 2.45 2.59,2.45,2 of 9 (4.58)
KSSQSVLYESRNKNSLA,WASTTES,QQYHRLPLS,2.37 2.81 3.12,2.77,0 of 9
KSSQWVLYESRNKNLVA,WASTRES,QQYHRCPLS,n.d. n.d. n.d.,n.d.,2 of 9 (3.63)
KSSQSLLYESRNKNSVA,WASPRES,QQYHRLPFS,5.58 n.d. n.d.,5.58,2 of 9 (3.63)
KSCQSVVYESRNKNSVA,WASTRES,QQYHWLPLS,1.89 1.95 2.18,2.01,1 of 9 (5.49)
KSSQSVLYESRNINGVA,WAITRES,QQYHRLPLS,n.d. n.d. n.d.,n.d.,0 of 9
KSSQSVLYESRNKNSVW,WASTRES,QVYFRLPLS,n.d. n.d. n.d.,n.d.,2 of 9 (3.60)
KSSQMVLYESRNKNSVA,WASTRES,QQYHRLPLS,0.76 1.07 1.07,0.97,0 of 9
KSSQMYLYESRNRNSVA,WASTRES,QQYHRLPLS,0.91 1.21 1.35,1.16,0 of 9
KSSQSVLYEERNKESVA,WASTRES,QQEHRLPLS,1.42 1.46 1.56,1.48,0 of 9
MSSQSVLYESRNKNSSA,WASTRES,QQYHWLPLS,n.d. 5.47 n.d.,5.47,2 of 9 (4.82)
KSSQLVLYESRNKNCVA,WASERES,QQYHRLPLS,n.d. 4.86 5.48,5.17,1 of 9 (3.92)
KSSQSVLYESDNKNSVA,WASTIES,QQIHRLPLS,n.d. n.d. n.d.,n.d.,1 of 9 (4.08)
KSSQSKLYESRNKWSVA,WASTRES,QQYFRLPLS,1.61 1.58 1.84,1.67,3 of 9 (4.59)
TSSQSVLYESRNKNSVA,WPSTRES,QQYHLLPLS,n.d. n.d. n.d.,n.d.,2 of 9 (3.12)
KSSQSVLYLSRNENSVA,WASTRES,QQYHRLPLG,3.23 n.d. 3.47,3.35,3 of 9 (4.19)
KSCQEVLYESRNKNSVA,WASTRES,QQLHRLPLS,n.d. 3.44 4.97,4.20,1 of 9 (2.81)
KSSISVLFESRNKNSEA,WASTRES,QQYHRLPLS,n.d. 3.39 n.d.,3.39,5 of 9 (4.13)
KSSQLVLYESRNKASVC,WASTRES,QQYHRLPLS,n.d. n.d. n.d.,n.d.,2 of 9 (3.18)
KSSQSVLYEHRNKNSVA,WAITRES,QQYHRLPLW,n.d. n.d. n.d.,n.d.,0 of 9
KSSQSVLYESRNKNSTA,WASTREQ,QQYHREPLS,n.d. n.d. n.d.,n.d.,3 of 9 (4.01)
KSSQSVLYESRTKNSVA,WNSTRES,QQYHRLPLS,n.d. n.d. n.d.,n.d.,0 of 9
KSSQSVLQESINHNSVA,WASTRES,QQYHRLPLS,0.19 0.52 0.44,0.39,4 of 9 (4.90)
KSSQRVLYESHNKNSVA,WASTSES,QQYHRLPLS,n.d. n.d. n.d.,n.d.,0 of 9
KSSQSVLYESRNKNSVA,WASTRES,QQYHRMYLS,0.14 0.39 0.28,0.27,1 of 9 (1.98)
KSSQSVLYESRNKNSVA,WMSTRES,QEAHRLPLS,n.d. n.d. n.d.,n.d.,0 of 9
KSSQSVLAESRNKISVA,WASTRES,QQDHRLPLS,1.61 1.77 2.00,1.79,4 of 9 (4.30)
KSSQSVLYESVNKNSVA,WASTRES,QQHHRHPLS,1.09 1.08 1.12,1.10,1 of 9 (3.55)
KSSQYVLYESRNKNSVA,WASARQS,QQYHRLPLS,3.89 3.24 3.72,3.61,2 of 9 (4.38)
KSVQSVLYESRNKNSVA,WASTRES,QVYHRLPLS,n.d. n.d. n.d.,n.d.,1 of 9 (4.69)
KSSNSVLYESRNKNSVA,WASPRLS,QQYHRLPLS,n.d. n.d. n.d.,n.d.,1 of 9 (2.69)

Excerpt, the final 4 entries:

| CDR-L1 | CDR-L2 | CDR-L3 | log10 Kd (nM) by replicate | log10 Kd (nM), mean | signal with controls |
|---|---|---|---|---|---|
| KSSQSVLYESVNKNSVA | WASTRES | QQHHRHPLS | 1.09 1.08 1.12 | 1.10 | 1 of 9 (3.55) |
| KSSQYVLYESRNKNSVA | WASARQS | QQYHRLPLS | 3.89 3.24 3.72 | 3.61 | 2 of 9 (4.38) |
| KSVQSVLYESRNKNSVA | WASTRES | QVYHRLPLS | n.d. n.d. n.d. | n.d. | 1 of 9 (4.69) |
| KSSNSVLYESRNKNSVA | WASPRLS | QQYHRLPLS | n.d. n.d. n.d. | n.d. | 1 of 9 (2.69) |

Three control strains display no target. For library AAYL50, 18% of the pairings with them gave a signal, with a median of 4.19 and one signal in twenty below 2.99, so weak values seen in few replicates may be background. The control count says in how many pairings with the empty strains this scFv gave a signal, with their mean in brackets.